Experimental data taken from patent publication US6344324B2, “Quantification of cellular injury using expression of a fluorescent protein under the control of the GADD153 promoter” (Research Development Foundation, priority 2000, dated 2002).

How the values were obtained:
[1] = tested on: T10b45 cells; assay: Clonogenic (colony-forming) assay; type: cell-based, human; details: 4 hour exposure
[2] = tested on: T10b45 cells; assay: Cell cycle phase distribution (G2/M arrest) by flow cytometry
[3] = tested on: GADD153 promoter activity in T10b45 cells; assay: GADD153 promoter-driven EGFP expression in T10b45 cells by flow cytometry
[4] = following 4 hour exposure to 20 μM

Question: How did the IC50 [1] turn out when N-methl-N′-nitro-N-nitrosoguanidine was run?
Answer: The IC50 was 1360 nM.

Question: And the “treated cells in G2 or M phase (maximal G2/M arrest)” value ([2]; 2 days after 4 hour exposure to 20 μM, untreated control 23.4%)?
Answer: The value was 63.0%.

Question: And the “perturbation of cell cycle phase distribution persisted” value ([2]; after 4 hour exposure to 20 μM)?
Answer: The value was 6 days.

Question: And the “perturbation of cell cycle phase distribution resolved” value ([2]; after 4 hour exposure to 20 μM)?
Answer: Its value is ≤ 8 days.

Question: What about the “Induction Ratio” value ([3]; 20 μM, 4 h exposure, GFP 4 days after treatment, relative to untreated control) of the same substance?
Answer: The value was 31.

Question: And the “activation of EGFP expression (in words)” value ([3]; T10b45 cells, 4 days after the insult, conditions of maximal activation (Table 1))?
Answer: The value was “strongly activated”.

Question: What about the “day GADD153-EGFP expression peaked” value [3, 4] of the same substance?
Answer: The value was 6 days.

Question: What about the “day GADD153-EGFP expression was detectable” value [3, 4] of the same substance?
Answer: Its value is ≤ 2 days.

Question: What about the “cells falling within the gated region” value ([3]; four days after 20 μM for 4 hour, untreated 0.12%) of the same substance?
Answer: The value was 3.74%.

Question: And the “fluorescence of T10b45 cells, mean channel value” ([3]; four days after 20 μM for 4 hour, untreated 4.11)?
Answer: The value was 13.28.
